Results reported in US20250228951A1, “NOVEL-PEPTIDE-BASED ANTICANCER IMMUNOTHERAPEUTIC AGENT” (TWINPIG BIOLAB INC., priority 2022, published 2025).

Columns and labels:
[1] = test system: A549 human lung cancer cells, CAFs, and THP-1 cells; assay: Lung cancer 3D organoids (spheroids); assay type: cell-based; conditions: 1 μM, 2 μM, and 4 μM
Excerpt: (§1) To complement the limitations in vitro and replace in vivo, a 3D organoid mimicking a tumor microenvironment (TME) of breast cancer was fabricated and an effect of TB511 thereon was confirmed. Specifically, an RPMI-1640 culture medium was mixed to contain 3% Matrigel, and MDA-MB-231 human breast cancer cells, CAFs (Cancer-associated Fibroblasts), and THP-1 cells fabricated to express GFP using MDA-MB-231 human breast chancer cells, Cancer-associated Fibroblast (CAF), and Incucyte®Nuclight Lentivirus Reagents (Sartorius) were counted and dispensed into a 96 u-bottom 3-D culture plate (Sbio) at a ratio of 5:1:1 to be 200 μl. After culturing, the cells were collected by centrifugation at 1200 rpm for 3 minutes and then cultured in a 37° C. incubator for 48 hours to form spheroids. From day 2 of spheroid formation, TB511 was treated every three days at concentrations of 1 μM, 2 μM, 4 μM, and 8 μM, and images were taken using a fluorescence microscope. After taking bright-field images, the spheroid area was measured using a method for measuring a Ferret diameter. In addition, the average tumor spheroid diameter was measured using an open source, and the average diameter of three spheroids was analyzed with ImageJ (software version 1.47 m). The spheroid size was analyzed by taking bright-field images (20X), and then measuring the average tumor spheroid diameter of three spheroids with ImageJ (software version 1.47 m). […] For THP-1, images of GFP fluorescence expressed within the cells were taken using a confocal microscope without performing separate staining, and the number of cells expressing fluorescence was measured.
(§2) Lung cancer 3D spheroids were fabricated by mixing A549 human lung cancer cells, CAFs, and THP-1 cells using the method of Example 8-1 above, and then treated with TB511 at concentrations of 1 μM, 2 μM, and 4 μM, respectively, and the effects thereof were analyzed as in Example 8-1 above. […]

[2] = test system: MDA-MB-231 human breast cancer cells, CAFs and THP-1 cells; assay: Breast cancer 3D organoids (spheroids); assay type: cell-based; conditions: 1 μM, 2 μM
Excerpt: To complement the limitations in vitro and replace in vivo, a 3D organoid mimicking a tumor microenvironment (TME) of breast cancer was fabricated and an effect of TB511 thereon was confirmed. Specifically, an RPMI-1640 culture medium was mixed to contain 3% Matrigel, and MDA-MB-231 human breast cancer cells, CAFs (Cancer-associated Fibroblasts), and THP-1 cells fabricated to express GFP using MDA-MB-231 human breast chancer cells, Cancer-associated Fibroblast (CAF), and Incucyte®Nuclight Lentivirus Reagents (Sartorius) were counted and dispensed into a 96 u-bottom 3-D culture plate (Sbio) at a ratio of 5:1:1 to be 200 μl. […] From day 2 of spheroid formation, TB511 was treated every three days at concentrations of 1 μM, 2 μM, 4 μM, and 8 μM, and images were taken using a fluorescence microscope. After taking bright-field images, the spheroid area was measured using a method for measuring a Ferret diameter. In addition, the average tumor spheroid diameter was measured using an open source, and the average diameter of three spheroids was analyzed with ImageJ (software version 1.47 m). The spheroid size was analyzed by taking bright-field images (20X), and then measuring the average tumor spheroid diameter of three spheroids with ImageJ (software version 1.47 m). […]

[3] = test system: Docetaxel-resistant PC3 prostate cancer cells, CAFs, and THP-1 cells; assay: Anticancer drug-resistant prostate cancer 3D organoids (spheroids); assay type: cell-based, human; conditions: 1 μM, 2 μM, and 4 μM
Excerpt: as §1
as §2, with “In order to confirm the efficacy of TB511 on Docetaxel-resistant prostate cancer,” for “Lung cancer”, “formed” for “fabricated”, “Docetaxel-resistant PC3 prostate” for “A549 human lung”

M2 macrophages = assay: Apoptosis induction by TB511 with or without anti-ITGB2 antibody pretreatment (CCK-8, Western blot, real-time PCR, immunofluorescence); assay type: cell-based, human
Procedure: To confirm whether TB511 induced apoptosis through ITGB2 in M2 macrophages, the M2 macrophages with suppressed ITGB2 expression fabricated in Example 7-1 were pretreated with an anti-ITGB2 antibody (Polyclonal Rabbit anti-Human ITGB2/CD18 antibody) (LS-C312785; LS Bio) (1 μg) for 1 hour, and then reacted with TB511 (1 μM) for 1 hour. Thereafter, the induction of apoptosis was confirmed by cell viability analysis using the CCK-8 assay, protein expression of caspase-3, an apoptosis marker, was confirmed by Western blot analysis, gene expression of caspase-3, caspase-8, and caspase-9 was confirmed by Real-time PCR, and induction of protein n expression of caspase-3 was confirmed by immunofluorescence.

[4] = test system: M2 macrophages in which ITGB2 expression was suppressed by Crispr/cas9; assay: CCK-8 cell viability in M2 macrophages with ITGB2 expression suppressed by Crispr/cas9; assay type: cell-based, human; conditions: TB511, cells where ITGB2 expression was suppressed
Procedure: As a cell model used to confirm whether apoptosis was induced through ITGB2 in M2 macrophages, a cell model in which the expression of ITGB2 was suppressed in M2 macrophages was fabricated using Crispr/cas9. Specifically, cells differentiated into M2 macrophages were cultured in an Opti-MEM medium. The Crispr/cas9 was mixed with Cas9 protein V2 (Thermo Fisher scientific) and gRNA (Genscript; ITGB2; Table 7) of a CRISPRMAX™ Reagent kit (Thermo Fisher scientific) and a Cas9 Plus™ Reagent (Thermo Fisher scientific), and a CRISPRMAX™ Reagent was diluted in the Opti-MEM medium, mixed together, and reacted for 5 to 10 minutes, and then added to cells differentiated into M2 macrophages and cultured at 37° C. for 2 to 3 days. Thereafter, the mRNA expression level of ITGB2 was confirmed.
To confirm whether Melittin-dKLA bound to ITGB2 to induce apoptosis in M2 macrophages, Melittin-dKLA (1 μM) was treated for 24 hours to M2 macrophages in which ITGB2 expression was suppressed by Crispr/cas9 fabricated in Example 7-1 above, and cell viability was analyzed using a CCK-8 assay. Specifically, Melittin-dKLA (1 μM) reacted with ITGB2 knockdown macrophages fabricated in Example 7-1 above for 1 hour. After the reaction, the medium was replaced and cultured at 37° C. for 24 hours. […] Absorbance was measured at 450 nm using a microplate reader (Molecular Devices). […]

[5] = test system: Carboplatin-resistant A549 cells, CAFs, and THP-1 cells; assay: Anticancer drug-resistant lung cancer 3D organoids (spheroids); assay type: cell-based, human; conditions: 1 μM, 2 μM, and 4 μM
Excerpt: as §1
In order to confirm the efficacy of TB511 on Carboplatin-resistant lung cancer, 3D spheroids were formed by mixing Carboplatin-resistant A549 cells, CAFs, and THP-1 cells using the method of Example 8-1 above, and then treated with TB511 at concentrations of 1 μM, 2 μM, and 4 μM, respectively, and the effects thereof were analyzed as in Example 8-1 above. […]

[6] = TB511 1 μM, M2 macrophages pretreated with the ITGB2 antibody

CC[C@H](C)[C@H](NC(=O)[C@H](CC(C)C)NC(=O)[C@H](C)NC(=O)[C@@H]1CCCN1C(=O)[C@H](CC(C)C)NC(=O)CNC(=O)[C@@H](NC(=O)[C@@H](NC(=O)[C@H](CC(C)C)NC(=O)[C@@H](N)C(C)C)[C@@H](C)O)[C@@H](C)O)C(=O)N[C@@H](CO)C(=O)N[C@@H](Cc1c[nH]c2ccccc12)C(=O)N[C@H](C(=O)N[C@@H](CCCCN)C(=O)N[C@@H](CCCNC(=N)N)C(=O)N[C@@H](CCCCN)C(=O)N[C@@H](CCCNC(=N)N)C(=O)N[C@@H](CCC(N)=O)C(=O)N[C@@H](CCC(N)=O)C(=O)NCC(=O)NCC(=O)NCC(=O)NCC(=O)N[C@@H](CO)C(=O)N[C@H](CCCCN)C(=O)N[C@H](CC(C)C)C(=O)N[C@H](C)C(=O)N[C@H](CCCCN)C(=O)N[C@H](CC(C)C)C(=O)N[C@H](C)C(=O)N[C@H](CCCCN)C(=O)N[C@H](CCCCN)C(=O)N[C@H](CC(C)C)C(=O)N[C@H](C)C(=O)N[C@H](CCCCN)C(=O)N[C@H](CC(C)C)C(=O)N[C@H](C)C(=O)N[C@H](CCCCN)C(=O)O)[C@@H](C)CC [TB511]
size of spheroids ([1]; compared to untreated group): significantly reduced in a concentration-dependent manner
number of THP-1 cells ([1]; day 10 after drug treatment): significantly decreased in a concentration-dependent manner
tumor proliferation factor ki-67 ([1]; day 10 after drug treatment): decreased in a concentration-dependent manner
size of spheroids ([2]; 4 μM, and 8 μM every three days): decreased in a concentration-dependent manner
number of THP-1 cells expressing GFP fluorescence ([2]; 4 μM, and 8 μM, compared to drug-untreated group): significantly decreased in a concentration-dependent manner
size of spheroids ([3]; compared to untreated group): significantly reduced in a TB511 concentration-dependent manner
number of THP-1 cells ([3]; day 10 after drug treatment): significantly decreased in a concentration-dependent manner
tumor proliferation factor ki-67 ([3]; day 10 after drug treatment): tended to be reduced
co-localization of the mitochondria and TB511 (M2 macrophages; M2 macrophages pretreated with ITGB2 antibody compared to cells not pretreated): decreased
cell viability (M2 macrophages; M2 macrophages, single agent (ITGB2 antibody 1 μg or TB511 1 μM)): significantly reduced
caspase-3 expression (Western blot) (M2 macrophages; TB511 1 μM, M2 macrophages): significantly increased
caspase-3 expression (immunofluorescence) (M2 macrophages; TB511 1 μM, M2 macrophages): increased
expression of caspase-3, caspase-8, and caspase-9 (Real-time PCR) (M2 macrophages; TB511 1 μM, M2 macrophages): significantly increased
caspase-3 expression (Western blot) (M2 macrophages; [6]): significantly decreased
caspase-3 expression (immunofluorescence) (M2 macrophages; [6]): decreased
cell viability (M2 macrophages; [6]): significantly increased
expression of caspase-3, caspase-8, and caspase-9 (Real-time PCR) (M2 macrophages; [6]): significantly decreased
cell viability [4]: significantly increased
size of spheroids ([5]; compared to untreated group): significantly reduced in a TB511 concentration-dependent manner
number of THP-1 cells ([5]; day 10 after drug treatment): significantly decreased in a concentration-dependent manner
tumor proliferation factor ki-67 ([5]; day 10 after drug treatment): significantly decreased from 2 μM
